Test results taken from US7276347B2 (priority 2004, dated 2007).
≈ marks a conversion by molar mass, not a printed value.

Experiments:
[1] = system: antibodies to HCY Oxime-BTG (example 4a); details: competitive ELISA; plate coated with HCY Oxime-BSA conjugate at 1.25 μg/mL; analyte concentration inhibiting 50% of absorbance
[2] = system: monoclonal antibody to HCY Oxime-KLH (example 4b); details: competitive ELISA; plate coated with HCY Oxime-BSA conjugate at 5 ug/mL; analyte concentration inhibiting 50% of absorbance

CON=CCCOP(N)(=O)N(CCCl)CCCl (centres unmarked)
IC 50 [1]: 0.03 µg/mL (≈ 0.098 µM)
IC 50 [2]: 0.1 µg/mL (≈ 0.327 µM)
